# Binding of CDR-mutated scFvs to a peptide of the spike HR2 region

Values reported by Engelhart et al. 2022, doi:10.1038/s41597-022-01779-4 (FLAb copy).

Target peptide (SARS-CoV-2 spike, HR2 region): PDVDLGDISGINAS

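The parent was found by panning a naive human phage display library on the peptide. Variants in AAYL52 differ from the parent at up to three CDR positions; double and triple changes were sampled at random. Affinity was read by AlphaSeq, a pooled yeast mating assay with surface-displayed partners. Mating (16 h, 30 °C) was followed by selection of diploids and sequencing of their barcodes. Read counts were normalised to the haploid input and turned into Kd by a linear fit to BCL2-family pairs of known affinity, for each replicate. There are three technical replicates.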

Parent: Ab-95, a human scFv built as VH, a (GGGGS)3 linker, VL. Only the CDRs of the light chain vary.
VH: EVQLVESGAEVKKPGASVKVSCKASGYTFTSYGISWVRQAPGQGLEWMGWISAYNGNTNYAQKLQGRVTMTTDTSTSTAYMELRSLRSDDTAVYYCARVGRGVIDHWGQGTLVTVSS
VL: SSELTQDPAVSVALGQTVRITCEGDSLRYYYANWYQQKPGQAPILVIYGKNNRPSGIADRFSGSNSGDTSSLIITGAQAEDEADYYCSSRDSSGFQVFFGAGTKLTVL

Changes read parent residue, position, new residue, counted from the first residue of the VL shown.
The read-out is the apparent dissociation constant on a log10 scale (nM): the lower, the stronger.
A mean of the replicates is given; it leaves out those without a signal.
An entry "nd" has no value in the source: the pair was not observed among the diploids in that replicate. This suggests poor binding but is not conclusive.
As a blank, each scFv also met three strains without target: over library AAYL52, 28% of these pairings were detected, typically at 3.91 and seldom below 2.90. The control count says in how many pairings with the empty strains this scFv gave a signal.

D25T+Y30R+S89R: nd, nd, nd (controls 0 of 9).
R28H+Y29G+S93Q: 2.99, 2.75, 2.73 (mean 2.82; controls 1 of 9).
G24P+R28K+N51G: 4.36, 5.05, nd (mean 4.70; controls 2 of 9).
S88L+R90S+D91L: nd, nd, nd (controls 2 of 9).
G49W+N52I+P54L: nd, nd, 4.58 (controls 2 of 9).
G24A+A32K+N33T: nd, nd, nd (controls 3 of 9).
Y29K+Y30L+N33Q: 3.50, 2.35, nd (mean 2.93; controls 0 of 9).
E23W+S26T+R53F: nd, 5.24, nd (controls 2 of 9).
D91Q+S92P+Q96G: nd, 5.07, nd (controls 1 of 9).
G24Y+N33P+S92E: 2.03, 2.14, 3.03 (mean 2.40; controls 2 of 9).
E23C+A32C+R53L: nd, nd, nd (controls 0 of 9).
S26W+S89C+F95W: nd, 3.88, nd (controls 2 of 9).
N51L+P54A+S89F: nd, nd, nd (controls 0 of 9).
Y29I+R90E+S92L: nd, nd, nd (controls 0 of 9).
L27F+D91G+F98K: 3.84, nd, 4.03 (mean 3.94; controls 3 of 9).
N51K+P54A+S89G: nd, 5.02, 4.40 (mean 4.71; controls 3 of 9).
G24M+Y31L+S55P: 3.36, nd, nd (controls 2 of 9).
S26W+L27M+S88C: 4.05, 3.70, 3.71 (mean 3.82; controls 2 of 9).
G24M+Y29P+S93K: 2.89, 2.51, 3.10 (mean 2.83; controls 1 of 9).
L27A+Y31K: 3.58, nd, nd (controls 0 of 9).
S26V+S89H+R90A: nd, 3.27, 2.98 (mean 3.12; controls 1 of 9).
G24M+G49S+F98G: 3.02, 2.73, 3.46 (mean 3.07; controls 5 of 9).
N33A+D91P+S93T: 3.24, 4.21, 3.81 (mean 3.75; controls 4 of 9).
D25A+A32L+N33M: nd, nd, nd (controls 1 of 9).
D25L+S92L: 3.05, 2.53, 3.13 (mean 2.91; controls 3 of 9).
N33L+N52L: 2.67, 3.12, 2.41 (mean 2.73; controls 0 of 9).
P54S+F95N+F98V: 3.12, 2.24, 3.23 (mean 2.87; controls 2 of 9).
D25N+N33V+S55R: 5.07, nd, nd (controls 4 of 9).
E23D+S26N+S55N: 2.68, 2.59, 2.42 (mean 2.56; controls 1 of 9).
D25R+R28C+S89A: 2.46, 2.56, 2.53 (mean 2.52; controls 1 of 9).
Y29H+S92P+V97L: 4.79, 2.64, 3.65 (mean 3.69; controls 0 of 9).

4 of these entries, quoted again:

{"changes": "G24M+Y29P+S93K", "log10 Kd, replicates": "2.89, 2.51, 3.10", "mean log10 Kd (nM)": "2.83", "signal with controls": "1 of 9"}
{"changes": "N51K+P54A+S89G", "log10 Kd, replicates": "nd, 5.02, 4.40", "mean log10 Kd (nM)": "4.71", "signal with controls": "3 of 9"}
{"changes": "G24Y+N33P+S92E", "log10 Kd, replicates": "2.03, 2.14, 3.03", "mean log10 Kd (nM)": "2.40", "signal with controls": "2 of 9"}
{"changes": "S26V+S89H+R90A", "log10 Kd, replicates": "nd, 3.27, 2.98", "mean log10 Kd (nM)": "3.12", "signal with controls": "1 of 9"}